Assay results as given in ChEMBL document CHEMBL1133251, “Synthesis and biological evaluation of 1-azabicyclo-[3.2.1]octanes: new dopamine transporter inhibitors” (Bioorg Med Chem Lett, 2000).

By UniProt entry, the sequences of proteins in these tests, tags left out.
UniProt P31652, whole entry: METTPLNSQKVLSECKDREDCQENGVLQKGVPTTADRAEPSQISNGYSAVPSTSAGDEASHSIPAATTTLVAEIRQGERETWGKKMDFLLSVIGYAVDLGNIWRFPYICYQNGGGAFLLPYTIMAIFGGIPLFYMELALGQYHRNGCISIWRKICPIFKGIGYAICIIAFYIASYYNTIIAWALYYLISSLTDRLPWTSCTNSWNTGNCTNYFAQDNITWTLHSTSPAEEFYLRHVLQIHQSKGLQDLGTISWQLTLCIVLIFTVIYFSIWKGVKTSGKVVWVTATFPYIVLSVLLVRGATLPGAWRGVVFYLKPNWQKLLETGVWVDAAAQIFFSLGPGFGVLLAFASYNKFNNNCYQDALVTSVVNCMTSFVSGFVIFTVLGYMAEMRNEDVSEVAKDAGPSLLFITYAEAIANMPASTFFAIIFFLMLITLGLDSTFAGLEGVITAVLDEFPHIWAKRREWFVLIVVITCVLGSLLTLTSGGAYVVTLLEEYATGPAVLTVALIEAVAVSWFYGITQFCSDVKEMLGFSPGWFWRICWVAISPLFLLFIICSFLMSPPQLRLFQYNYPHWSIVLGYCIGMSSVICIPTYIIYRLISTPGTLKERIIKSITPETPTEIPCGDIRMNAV

Biological target: Sodium-dependent serotonin transporter (Rattus norvegicus, UniProt P31652)
Assay: Inhibition of [3H]-5-HT binding to serotonin transporter of rat brain synaptosomes
Format: subcellular

COC(=O)[C@H]1[C@@H](OC(=O)c2ccccc2)C[C@@H]2CC[C@H]1N2C [COCAINE]
Ki: 0.413 µM
